Values quoted from earlier work in patent US12624118B2, “Trispecific binding molecules against BCMA and uses thereof” (Novartis AG, priority 2019, dated 2026).

System: EGFR mutant NSCLC
Conditions: cited from earlier work

Cc1cc(C(=O)Nc2nc3cccc(Cl)c3n2[C@@H]2CCCCN(C(=O)/C=C/CN(C)C)C2)ccn1 [Compound A40, (R,E)-N-(7-chloro-1-(1-(4-(dimethylamino)but-2-enoyl)azepan-3-yl)-1H-benzo[d]imidazol-2-yl)-2-methylisonicotinamide]
efficacy in patients: shown efficacy
